The values below come from ChEMBL document CHEMBL5506064, “Discovery of ITI-333, a Novel Orally Bioavailable Molecule Targeting Multiple Receptors for the Treatment of Pain and Other Disorders” (J Med Chem, 2024).

Protein sequences, listed by entry. Tags and fused reporters are not part of them.
UniProt P28223, whole entry: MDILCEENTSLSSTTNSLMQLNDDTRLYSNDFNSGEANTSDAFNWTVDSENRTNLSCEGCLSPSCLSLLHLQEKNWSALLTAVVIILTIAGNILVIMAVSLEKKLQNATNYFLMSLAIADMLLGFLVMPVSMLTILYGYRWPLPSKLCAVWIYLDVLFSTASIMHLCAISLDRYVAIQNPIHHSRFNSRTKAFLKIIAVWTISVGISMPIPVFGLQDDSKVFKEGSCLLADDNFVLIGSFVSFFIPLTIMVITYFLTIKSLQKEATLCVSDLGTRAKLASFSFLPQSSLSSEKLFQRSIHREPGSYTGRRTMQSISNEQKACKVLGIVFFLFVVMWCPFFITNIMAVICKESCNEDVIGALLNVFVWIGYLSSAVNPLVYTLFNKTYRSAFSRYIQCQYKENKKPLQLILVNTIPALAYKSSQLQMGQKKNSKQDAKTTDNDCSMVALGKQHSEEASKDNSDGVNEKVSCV
UniProt P21728, whole entry: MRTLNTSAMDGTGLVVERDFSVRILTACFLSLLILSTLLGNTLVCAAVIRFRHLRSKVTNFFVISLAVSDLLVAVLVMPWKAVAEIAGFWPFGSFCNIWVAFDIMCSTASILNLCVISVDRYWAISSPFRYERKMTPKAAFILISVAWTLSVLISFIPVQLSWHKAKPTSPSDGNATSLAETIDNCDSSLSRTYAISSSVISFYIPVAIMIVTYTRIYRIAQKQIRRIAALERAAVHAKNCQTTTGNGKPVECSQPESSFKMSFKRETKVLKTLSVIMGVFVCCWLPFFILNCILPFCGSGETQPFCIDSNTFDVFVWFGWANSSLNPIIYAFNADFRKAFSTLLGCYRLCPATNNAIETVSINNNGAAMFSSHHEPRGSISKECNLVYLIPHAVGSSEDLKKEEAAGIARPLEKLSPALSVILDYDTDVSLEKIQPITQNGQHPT
UniProt P31645, whole entry, looked up: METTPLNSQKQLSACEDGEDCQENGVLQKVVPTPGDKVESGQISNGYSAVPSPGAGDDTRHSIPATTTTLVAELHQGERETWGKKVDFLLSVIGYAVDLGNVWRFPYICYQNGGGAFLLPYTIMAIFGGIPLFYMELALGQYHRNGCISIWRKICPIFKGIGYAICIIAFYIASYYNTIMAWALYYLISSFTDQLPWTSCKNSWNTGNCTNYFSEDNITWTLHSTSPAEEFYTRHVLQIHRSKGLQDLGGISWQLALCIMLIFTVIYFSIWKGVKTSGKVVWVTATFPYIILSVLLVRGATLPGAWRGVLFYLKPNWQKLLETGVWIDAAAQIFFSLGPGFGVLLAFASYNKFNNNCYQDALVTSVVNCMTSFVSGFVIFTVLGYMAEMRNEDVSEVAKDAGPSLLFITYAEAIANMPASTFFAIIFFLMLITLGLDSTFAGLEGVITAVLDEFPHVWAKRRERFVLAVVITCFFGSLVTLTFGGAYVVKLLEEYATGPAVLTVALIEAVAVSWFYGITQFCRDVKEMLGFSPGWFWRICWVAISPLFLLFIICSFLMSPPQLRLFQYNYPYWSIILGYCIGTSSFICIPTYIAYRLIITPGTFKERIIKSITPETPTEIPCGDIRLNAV
UniProt P14416, whole entry: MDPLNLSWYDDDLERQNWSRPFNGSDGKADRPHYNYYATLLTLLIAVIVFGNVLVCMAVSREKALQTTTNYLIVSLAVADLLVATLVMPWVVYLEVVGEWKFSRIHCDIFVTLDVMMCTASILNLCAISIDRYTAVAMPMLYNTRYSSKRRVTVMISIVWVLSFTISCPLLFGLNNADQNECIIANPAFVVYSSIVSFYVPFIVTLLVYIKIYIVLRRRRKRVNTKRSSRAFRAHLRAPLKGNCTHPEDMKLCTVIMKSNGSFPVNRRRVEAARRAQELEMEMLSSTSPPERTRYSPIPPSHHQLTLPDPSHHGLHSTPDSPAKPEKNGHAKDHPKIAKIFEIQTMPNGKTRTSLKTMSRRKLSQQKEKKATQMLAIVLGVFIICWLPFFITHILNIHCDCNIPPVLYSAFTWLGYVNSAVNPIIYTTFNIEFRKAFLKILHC

For assay [1], the target named is 5-hydroxytryptamine receptor 2A (Homo sapiens) (UniProt P28223). Put plainly: Displacement of [125I]DOI from human 5-HT2A receptor expressed in HEK293 cell membrane assessed as inhibition of radioligand binding at 100 nM incubated for 60 mins by competition binding based scintillation counter analysis relative to control. It is filed as cell membranes. (In general: Displacement assays read how much labelled ligand stays bound in the presence of the test substance.)

Assay [2] addresses D(1A) dopamine receptor (Homo sapiens) (UniProt P21728). Particulars: CHO, Cell membrane, dose 50.0 nM, time 60.0 min.
Assay [3] has the same target. Description: Displacement of [3H]SCH-23390 from human dopamine D1 receptor expressed in CHO cell membrane assessed as inhibition of radioligand binding at 100 nM incubated for 60 mins by competition binding based scintillation counter analysis relative to control. The class given is cell membranes.
Assay [4] deals with 5-hydroxytryptamine receptor 2A (Homo sapiens) (UniProt P28223). As to conditions: HEK293, Cell membrane, dose 10.0 nM, time 60.0 min.
In assay [5] the target is Sodium-dependent serotonin transporter (Homo sapiens) (UniProt P31645). Put plainly: Displacement of [3H]-imipramine from human 5-HT transporter expressed in CHO cell membrane assessed as inhibition of radioligand binding at 200 nM incubated for 60 mins by competition binding based scintillation counter analysis relative to control. The class given is cell membranes.
Assay [6] deals with D(2) dopamine receptor (Homo sapiens) (UniProt P14416). Put plainly: Displacement of [3H]7-OH-DPAT from human dopamine D2 receptor expressed in HEK293 cell membrane assessed as inhibition of radioligand binding at 100 nM incubated for 60 mins by competition binding based scintillation counter analysis relative to control. It is filed as cell membranes.
Assay [7] has as its target Sodium-dependent serotonin transporter (Homo sapiens) (UniProt P31645). Put plainly: Displacement of [3H]-imipramine from human 5-HT transporter expressed in CHO cell membrane assessed as inhibition of radioligand binding at 100 nM incubated for 60 mins by competition binding based scintillation counter analysis relative to control. It is filed as cell membranes.

Structures are written as SMILES. Calls of active or inactive are those of the source. The rule behind the calls is not given here.

As usually defined, the inhibition is the share of the control response that was lost under treatment. For `N#Cc1ccc(OCCCN2CC[C@H]3[C@@H](C2)c2cccc4c2N3CC(=O)N4)cc1`, the inhibition entry in assay [1] was “inactive”. The compound further yielded an inhibition in assay [2] of 7%.

`O=C1CN2c3c(cccc3[C@@H]3CN(CCCOc4cccc5cccnc45)CC[C@@H]32)N1`: the inhibition entry in assay [1] and in assay [3] was “inactive” in each case.

Compound `O=C1CN2c3c(cccc3[C@@H]3CN(CCCOc4ccc(Cl)cc4)CC[C@@H]32)N1` came in with an inhibition in assay [4] of 15%. Moreover, in assay [3], the inhibition entry was “inactive”.

In the case of `O=C1CN2c3c(cccc3[C@@H]3CN(CCCCc4ccc(F)cc4)CC[C@@H]32)N1`, the inhibition in assay [1] (filed as antagonist) was 85%; in assay [3], 32%; in assay [5] it was 16%; in assay [6], 24%.

Take `O=C1CN2c3c(cccc3[C@@H]3CN(CCCSc4ccc(F)cc4)CC[C@@H]32)N1`: the inhibition in assay [1] (filed as antagonist) is 93%; in assay [3] (filed as antagonist), 54%; in assay [6] (filed as antagonist) it was 49%. Besides, the inhibition result in assay [5] was “inactive”.

Turning to `Cn1nc(CCCN2CC[C@H]3[C@@H](C2)c2cccc4c2N3CC(=O)N4)c2ccc(F)cc21`, the inhibition in assay [3] (filed as antagonist) worked out at 54%; in assay [7], 35%; in assay [6] (filed as antagonist), 43%.

On to `O=C1CN2c3c(cccc3[C@@H]3CN(CCCNc4ccc(F)cc4)CC[C@@H]32)N1`, for which the inhibition was found to be 32% in assay [1], 11% in assay [3] and 25% in assay [6]. Also, the inhibition entry in assay [5] is “inactive”.

As for `O=c1[nH]c2cccc3c2n1[C@H]1CCN(CCCOc2ccc(F)cc2)C[C@@H]31`, the inhibition was 90% in assay [1] (filed as antagonist), 37% in assay [3] and 37% in assay [6]. Further, in assay [5], the inhibition entry was “inactive”.
